# Antibody variant affinities, Ab-14 light chain, assay 1

The measurements come from Engelhart et al. 2022 (doi:10.1038/s41597-022-01779-4) through the FLAb antibody collection.

The target is the same throughout: PDVDLGDISGINAS, from the HR2 region of SARS-CoV-2 spike.

The variants keep the heavy chain, the linker and the frameworks of Ab-14 (scFv order VH, a 15-residue (Gly4Ser)3 linker, VL).
VH: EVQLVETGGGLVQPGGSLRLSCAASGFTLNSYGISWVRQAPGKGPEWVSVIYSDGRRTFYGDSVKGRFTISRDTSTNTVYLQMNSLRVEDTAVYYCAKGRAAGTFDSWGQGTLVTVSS
VL: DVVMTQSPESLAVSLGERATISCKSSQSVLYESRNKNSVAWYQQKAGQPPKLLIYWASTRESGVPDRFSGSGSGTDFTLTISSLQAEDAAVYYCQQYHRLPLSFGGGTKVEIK

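AAYL50 was designed without a model: most single CDR substitutions and a random sample of double and triple ones. AlphaSeq pools MATa yeast showing the antibodies with MATalpha yeast showing the peptide. Binding brings cells together so that they mate, and sequencing counts the barcode pairs among the diploids. The ratio of observed to expected reads was calibrated, replicate by replicate, on BCL2-family standards whose Kd was known from biolayer interferometry. The assay was run in three technical replicates.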

Positions count from residue 1 of the parent VL; S28L puts L in place of S. Numbers give log10(Kd / nM), so 0 is 1 nM and 3 is 1 µM. Smaller is tighter. A mean of the replicates is given; it leaves out those without a signal. A pair that was not seen in any replicate is written "nd"; this usually means weak binding, but a binder can also be missed. Nonspecific signal, from three strains lacking the peptide, appeared in 18% of pairings of library AAYL50, centred on 4.19 (5% of these signals below 2.99); values are not corrected for it. For reference, the parent read 0.65 as the reference entry and 1.68 as a member of this library.

changes | mean, log10 nM | seen in
S28L+L30D+Q96I | 2.68 | 2 of 3
L100H+L102N+S103C | 3.54 | 3 of 3
Q27V+K36P+A40C | 3.88 | 1 of 3
V29M+A57W+H98R | nd | 0 of 3
S25K+W56Q+R60D | nd | 0 of 3
S25F+Q27G+V39K | 4.52 | 2 of 3
V29S+E61K+L102M | 2.91 | 3 of 3
V39M+S58P+Q96L | nd | 0 of 3
S28K+W56D+S103W | 0.91 | 3 of 3
S25H+E32L+N35Q | 2.51 | 3 of 3
L30E+N35P+T59Q | 0.84 | 3 of 3
Q27Y+N37T+S103H | 1.92 | 3 of 3
Y31K+E61W+H98E | 2.44 | 3 of 3
S28V+V29F+N35V | 1.62 | 3 of 3
A40R+S58Q | nd | 0 of 3
V29A+N37A+T59V | 1.59 | 3 of 3
S25M+S26P+S58N | -0.15 | 3 of 3
E32T+K36L+R99Q | 1.29 | 3 of 3
Q96P+H98I+L100Y | 4.26 | 2 of 3
V39E+S62W+L102D | 3.24 | 1 of 3
Q27H+E32H+A40Q | 4.58 | 1 of 3
S62R+Q95S+S103P | nd | 0 of 3
Q27F+N35T+Y97I | nd | 0 of 3
S33H+T59S | 3.69 | 2 of 3
A57F+H98S+P101K | nd | 0 of 3
S26M+R34E+V39S | 4.77 | 2 of 3
Q27N+Q96C+P101K | 3.64 | 1 of 3
N35R+W56H+S103F | 1.24 | 3 of 3
A57F+L102A | 2.86 | 1 of 3
S33R+H98V+L100C | 3.70 | 1 of 3
L30F+R34Y+W56T | 1.99 | 3 of 3
K24E+V29M+A57M | 3.28 | 3 of 3
S38C+S62T+Y97W | 2.08 | 3 of 3
V29D+K36A+W56Q | 0.41 | 3 of 3
S26M+N35S+A40T | nd | 0 of 3
E61P+Q96K | 4.39 | 1 of 3
R99Q+L102S | 2.20 | 3 of 3
V39P+Q95R+Y97H | 4.94 | 3 of 3
V29W+Y97V+L102R | 1.42 | 3 of 3
S33R+Y97M+L102A | 2.80 | 3 of 3
N35E+S58W+L100Y | 3.96 | 2 of 3
Y31P+L102Y+S103W | 1.79 | 3 of 3
S25H+S28P+E32D | 0.96 | 3 of 3
S33R+S38L+Q96D | 4.22 | 1 of 3
S26H+L30V | 4.70 | 1 of 3
V39P+A40H+S58W | 3.09 | 1 of 3
K36V+S38A+R99N | 1.62 | 3 of 3

Picked from the list: the 4 lowest averages where every replicate gave a value.

{"changes": "S25M+S26P+S58N", "mean, log10 nM": "-0.15", "seen in": "3 of 3"}
{"changes": "V29D+K36A+W56Q", "mean, log10 nM": "0.41", "seen in": "3 of 3"}
{"changes": "L30E+N35P+T59Q", "mean, log10 nM": "0.84", "seen in": "3 of 3"}
{"changes": "S28K+W56D+S103W", "mean, log10 nM": "0.91", "seen in": "3 of 3"}